Literature values as cited in US9687493B2, “Use of NK-1 receptor antagonists for treating hypomagnesemia, neurogenic inflammation, and cardiac dysfunction associated with EGFR-blocking drugs” (THE GEORGE WASHINGTON UNIVERSITY, priority 2014, dated 2017).

Conditions: cited from earlier work

Substance: cetuximab
- fractional excretion of magnesium (patients treated with cetuximab): increased
- hypomagnesemia in treated patients (patients with colorectal cancer, monoclonal antibodies targeting the EGFR): pronounced hypomagnesemia
